Laboratory results: publication PMC6335200 (Journal of medicinal chemistry, 2018)

Test system: DENV2 (New Guinea C strain)

In the case of `COc1cc(-c2cnc3c(N4CCOC(C)(C)C4)snc3c2)ccc1N` [Compound 12o, 4-(3-(3,3-Dimethylpiperidin-1-yl)isothiazolo[4,3-b]pyridin-6-yl)-2-methoxyaniline], the “anti-DENV activity (in words)” value is reported as “no antiviral activity beyond toxicity”.
`COc1cc(-c2cnc3c(N4CCOC[C@H]4C)snc3c2)ccc1N` [Compound 12q, (R)-2-Methoxy-4-(3-(3-methylmorpholino)isothiazolo[4,3-b]pyridin-6-yl)aniline] was tested, and the “anti-DENV activity (in words)” value was “lacked antiviral activity”.
For `COc1cc(-c2cnc3c(N4CCOC[C@@H]4C)snc3c2)ccc1N` [Compound 12p, (S)-2-Methoxy-4-(3-(3-methylmorpholino)isothiazolo[4,3-b]pyridin-6-yl)aniline], the “anti-DENV activity (in words)” value was “no antiviral activity beyond toxicity”.
For `COc1cc(-c2cnc3c(N4CCC(F)(F)CC4)snc3c2)ccc1N` [Compound 12b, 4-(3-(4,4-Difluoropiperidin-1-yl)isothiazolo[4,3-b]pyridin-6-yl)-2-methoxyaniline], the “anti-DENV activity (in words)” value was “no antiviral activity”.
In the case of `COc1cc(-c2cnc3c(N4CCC(C(N)=O)CC4)snc3c2)ccc1N` [Compound 12c, 1-(6-(4-Amino-3-methoxyphenyl)isothiazolo[4,3-b]pyridin-3-yl)piperidine-4-carboxamide], the “anti-DENV activity (in words)” value is reported as “no antiviral activity”.
